We go through 99 compounds from PubChem BioAssay AID1885 (Broad Institute, 2009).

This is a selection; strong and weak results do not stand in their true shares. The source made the active and inactive calls.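 Rule for the calls: active = mean inhibition across valid replicates above about 55% (limit read from the data); inconclusive = mean below that limit but half or more replicates reach it; inactive = mean below it, under half of replicates reach it.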

A short description of the assay: Trypanosoma cruzi replication blockers in host cells – luminescence, NIH3T3 host cells, primary screen (AID 1885).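 Note: 0% = plate median of DMSO wells and 100% = zero luminescence signal; higher percent means less beta-gal luminescence so fewer parasites.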 The note with it: T. cruzi beta-gal in NIH3T3, luminescence, 90 h; stronger effect = higher value; concentration not given here. An outline of the steps:
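Incubation – ≥90 h infection period, 3 h prior cell attachment · System – NIH/3T3 fibroblasts plus reporter T. cruzi · Doses – compound pinned at 50 nL/well, DMSO · Read-out basis – percent inhibition of parasite-derived β-gal signal · Signal – luminescent β-galactosidase signal after 60 min lysis · Also added – 5000 T. cruzi trypomastigotes/well · Medium – Low-serum DMEM with 2% FBS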
The term inhibition denotes the drop in the measured response relative to a control, in per cent. On to `Nc1cc(N)c2nonc2c1[N+](=O)[O-]`, for which the inhibition was inactive: -2.58%.
With `CC(C)CC(=O)NC(Sc1ccc(Cl)cc1)C(Cl)(Cl)Cl` (centres undefined), the inhibition was inactive: 19.3%.
Turning to `COc1ccc(OP(C)(=O)Nc2ccccc2Br)cc1` (centres undefined), the inhibition was inactive: -42.1%.
Take `Cc1cc(SC(NC(=O)c2ccc(F)cc2)C(Cl)(Cl)Cl)ncn1` (centres undefined): the inhibition was inactive: -2.37%.
The same measure for `CCOP(=O)(Nc1ccccc1)OCC`: inactive: 0.986%.
Next, `COc1ccccc1OP(C)(=O)Nc1ccc(C)c(C)c1` (centres undefined): inactive: 7.16%; `Cc1ccc(NP(=O)(Oc2ccccc2F)Oc2ccccc2F)nc1`: inactive: -5.34%.
Next, `CN(C(=O)Cc1ccc(Cl)c(Cl)c1)[C@H]1CCCC[C@@H]1N1CCCC1`: inactive: 17.9%; `O=P(Nc1nc2ccc(Cl)cc2s1)(c1ccccc1)c1ccccc1`: inactive: -24%; `Cc1cc(C)cc(OP(C)(=O)Nc2cccc(C(F)(F)F)c2)c1` (centres undefined): inactive: 32.3%.
Regarding `CC(=O)Nc1ccc([As](=O)(O)O)cc1`, the inhibition is inactive: -3.49%.
With `O=C(O)c1ccccc1[As](=O)(O)O`, the inhibition is inactive: -9.06%.
With `Nc1cccc2ccc([As](=O)(O)O)cc12`, the inhibition was inactive: -10.8%.
Next, `CP(=O)(Nc1ccc(Cl)cc1Cl)Oc1ccccc1` (centres undefined): inactive: -10.2%; `CP(=O)(OCCOc1ccccc1)OCCOc1ccccc1`: inactive: -4.19%.
Next, `CCN(N=Nc1nonc1N)c1nonc1N`: inactive: -10.7%; `O=[N+]([O-])c1cc([N+](=O)[O-])c(CCN2CCOCC2)c([N+](=O)[O-])c1`: inactive: 29.9%; `Cc1nc2ccc3ccccc3c2o1.O=[N+]([O-])c1cc([N+](=O)[O-])c(O)c([N+](=O)[O-])c1`: inactive: 52%.
For the compound `Cc1ccc(OP(=O)(Nc2ccc([N+](=O)[O-])cn2)Oc2ccc(C)cc2)cc1`, the inhibition was inactive: 4.65%.
Next, `CC(C)(C)c1ccc(OP(C)(=O)Nc2ccc(SC(F)(F)F)cc2)cc1` (centres undefined): active: 65%; `Cc1cccc(C)c1OP(C)(N)=O` (centres undefined): inactive: 0.387%.
The same measure for `O=[N+]([O-])c1ccc2c(c1)C=Nc1ccccc1O2`: inactive: -17.5%; for `Cc1ccc2nc3c(c(C)c2c1)CC(C(Cl)Cl)S3` (centres undefined): inactive: -5.59%; for `O=[N+]([O-])c1cc([N+](=O)[O-])c(Nc2cccnc2)c([N+](=O)[O-])c1`: inactive: 44.8%.
Next, `C[As](=O)(O)c1cccc(C(=O)O)c1`: inactive: -4.82%; `O=[As](O)(c1ccc(O)cc1)c1ccccc1O`: inactive: -5.63%.
As to `COc1ccccc1OP(C)(=O)Nc1cc(Cl)ccc1C` (centres undefined), the inhibition is inactive: -5.66%.
With `CC(C)NC(=O)NP(=O)(Oc1ccccc1)Oc1ccccc1`, the inhibition was inactive: -16.5%.
Next, `COc1ccc(OP(C)(=O)Nc2cccc(F)c2)cc1` (centres undefined): inactive: -3.62%; `Cc1cc(C)cc(OP(C)(N)=O)c1` (centres undefined): inactive: -10.4%.
The same measure for `CCOC(=O)c1ccc(NP(C)(=O)Oc2ccccc2)cc1` (centres undefined): inactive: 4.61%; for `ClCCSc1nnc(-c2cccnc2)o1`: inactive: -7.74%; for `COc1ccccc1OP(C)(=O)Nc1ccc(C)cc1` (centres undefined): inactive: -19.9%.
For the compound `Cc1ccc(NP(C)(=O)Oc2ccccc2)c(C)c1` (centres undefined), the inhibition was inactive: -10.4%.
With `CC(C)c1ccc(OP(=O)(Nc2ccccn2)Oc2ccccc2F)cc1` (centres undefined), the inhibition was inactive: -10.8%.
For the compound `COc1ccc2nc(NP(=O)(c3ccccc3)c3ccccc3)sc2c1`, the inhibition was inactive: -1.02%.
The same measure for `COc1cc(I)ccc1[As](=O)(O)O`: inactive: 1.91%; for `Cc1c2c(nc3ccccc13)SC(C(Cl)Cl)C2` (centres undefined): inactive: 26.2%.
The same measure for `O=C(OC1CN2CCC1CC2)C12CC3CC(CC(C3)C1)C2` (centres undefined): inactive: 18.4%; for `Cc1cc(=O)[nH]c(N[N+](=O)[O-])n1`: inactive: -20.4%; for `CCN(CC)CCCOC(=O)C(O)(c1ccccc1)c1ccccc1`: inactive: -13.1%.
The same measure for `COc1ccc(N/C(=N/P(=O)(N2CCOCC2)N2CCOCC2)N2CCOCC2)cc1`: inactive: -5.42%; for `O=C(COc1ccccc1)OC1CN2CCC1CC2` (centres undefined): inactive: -3.49%; for `CP(=O)(NC(=O)Nc1ccccc1)Oc1ccccc1` (centres undefined): inactive: -13.1%.
As to `CCc1ccc(OP(C)(=O)N2CCN(c3ccc([N+](=O)[O-])cc3)CC2)cc1` (centres undefined), the inhibition is inactive: 9.16%.
Take `O=C(Nc1ccncc1[N+](=O)[O-])c1ccc([N+](=O)[O-])cc1[N+](=O)[O-]`: the inhibition is inactive: 18.2%.
As to `Cc1cc(C)cc(OP(C)(=O)Nc2ccc(SC(F)(F)F)cc2)c1` (centres undefined), the inhibition was inactive: 22.6%.
Next, `COP1(=S)c2c(C)nn(CCC#N)c2N=C(c2ccc(F)cc2)N1C` (centres undefined): inactive: 0.252%; `Cc1cccc(C)c1OP(C)(=O)Nc1ccc(SC(F)(F)F)cc1` (centres undefined): inactive: 19%.
On to `CP(=O)(Nc1ccc(SC(F)(F)F)cc1)Oc1ccc(Cl)cc1` (centres undefined), for which the inhibition is inactive: 35.8%.
With `CP(=O)(Oc1ccccc1)OC(c1ccccc1)C(F)(F)F` (centres undefined), the inhibition is inactive: -15.9%.
`CP(=O)(Nc1ccccn1)Oc1ccc(Cl)cc1` (centres undefined): the inhibition was inactive: -10%.
Take `CCOP(C)(=S)SCC(=O)NC(C)C(=O)O` (centres undefined): the inhibition is inactive: -8.94%.
The same measure for `O=C(OC1CN2CCC1CC2)c1cccc([N+](=O)[O-])c1` (centres undefined): inactive: -6.86%; for `CCOC(=O)c1ccc(NC(=O)C(C)(CCl)SC)cc1` (centres undefined): inactive: -12.5%; for `CCOC(=O)c1ccc(NP(C)(=O)Oc2ccc(OC)cc2)cc1` (centres undefined): inactive: -13%.
Next, `O=[N+]([O-])c1cc([N+](=O)[O-])c(O)c([N+](=O)[O-])c1.c1ccc(Oc2ccncc2)cc1`: inactive: 2.4%; `CCCCOc1ccc(C(=O)NCC2(N3CCCCC3)CCCCC2)cc1OC`: inactive: 8.49%; `Cc1cc(SC(NC(=O)c2ccccc2)C(Cl)(Cl)Cl)nc(C(C)C)n1` (centres undefined): inactive: -8.72%.
Next, `CCOC(=O)Nc1ccc([As](=O)(O)O)c(O)c1`: inactive: 2.5%.
As for `O=P(Nc1ccccn1)(c1cccc2ccccc12)c1cccc2ccccc12`, the inhibition was inactive: 6.27%.
Next, `Cc1cc(SC(NC=O)C(Cl)(Cl)Cl)ncn1` (centres undefined): inactive: -2.66%; `COc1ccccc1OP(C)(=O)Nc1ccccc1` (centres undefined): inactive: -9.43%.
Turning to `CP(=O)(Nc1ccccc1Br)Oc1ccccc1` (centres undefined), the inhibition is inactive: -10.5%.
The same measure for `O=[N+]([O-])c1ccc(Nc2ccc(Oc3ccc([N+](=O)[O-])cc3[N+](=O)[O-])cc2)c([N+](=O)[O-])c1`: inactive: -5.39%; for `CP(=S)(Nn1cnnc1)Oc1ccccc1` (centres undefined): inactive: -8.72%.
Next, `CCOC(=O)Nc1cccc([As](=O)(O)O)c1`: inactive: -18%; `CN(C)C1(CNC(=O)c2ccc(S(C)(=O)=O)cc2)CCCCC1`: inactive: 0.554%; `O=[N+]([O-])c1cc([N+](=O)[O-])c(Nc2nnnn2CCO)c([N+](=O)[O-])c1`: inactive: 8%.
Next, `CCOC(=O)C(CC)C1=NC(C)(C)Cc2ccccc21.O=[N+]([O-])c1cc([N+](=O)[O-])c(O)c([N+](=O)[O-])c1` (centres undefined): inactive: -8.37%; `O=C(/C=C/c1ccccc1)OC1CN2CCC1CC2` (centres undefined): inactive: 11.9%; `Cc1nn(-c2ccccc2)c2c1P(=O)(N1CCOCC1)N(C)C(c1ccccc1)=N2` (centres undefined): inactive: -8.66%.
Consider `CC1CCC(C(C)C)C(OP(=O)(Nc2ccccn2)c2ccccc2)C1` (centres undefined), for which the inhibition was inactive: 8.94%.
As for `Cc1ccc(C(=O)OC2CN3CCC2CC3)cc1` (centres undefined), the inhibition is inactive: -9.5%.
Consider `COc1cc(C2NCCC3(OCCO3)C2(C)C)cc(OC)c1OC.O=[N+]([O-])c1cc([N+](=O)[O-])c(O)c([N+](=O)[O-])c1` (centres undefined), for which the inhibition was inactive: 10.5%.
Next, `CCCOc1ccc(NP(C)(=O)Oc2ccc(Cl)cc2)cc1` (centres undefined): inactive: 26%; `CP(=O)(Nc1ccc(SC(F)(F)F)cc1)Oc1ccccc1` (centres undefined): inactive: 3.24%.
The same measure for `Nc1cccc([As](=O)(O)c2ccccc2)c1`: inactive: -9.84%.
Next, `Cc1ccc(OCC(=O)OC2CN3CCC2CC3)cc1` (centres undefined): inactive: -5.47%; `O=[As](O)(c1cccs1)c1cccs1`: inactive: 6.84%; `O=P1(Nc2ccc(Br)cn2)COc2ccccc2OC1`: inactive: 2.92%.
In the case of `COc1ccccc1OP(C)(=O)Nc1c(C)cccc1C` (centres undefined), the inhibition is inactive: -10.6%.
Next, `CN1CCCCC1COC(=O)C1(O)c2ccccc2CCc2ccccc21` (centres undefined): inactive: 2.19%; `O=P1(Nc2ncccn2)COc2ccccc2OC1`: inactive: -10.6%.
Next, `Clc1n[nH]nc1-c1nn[nH][15n]1`: inactive: -12.1%.
In the case of `CC(C)(C)C(=O)NC(Sc1ncccn1)C(Cl)(Cl)Cl` (centres undefined), the inhibition is inactive: 0.0862%.
The same measure for `O=P1(Nc2ccccn2)COc2ccccc2OC1`: inactive: -1.92%.
The same measure for `O=[N+]([O-])c1cc([N+](=O)[O-])c(-n2nnc3ccccc32)c([N+](=O)[O-])c1`: inactive: -17.7%; for `CCOP(=O)(NC(=NC(C)c1ccccc1)NC(C)c1ccccc1)OCC` (centres undefined): inactive: -0.582%; for `CCOP(=O)(Nc1ccc(C)cn1)OCC`: inactive: 3.76%.
Next, `CN(CCCl)Cc1cc(Cl)c(NC2=NCCN2)c(Cl)c1`: inactive: -33.7%; `CC(C)/C=N\N=C(\N)N[N+](=O)[O-]`: inactive: 7.41%; `CN(C(=O)Cc1ccc(Cl)c(Cl)c1)[C@@H]1CCCC[C@H]1N1CCCC1`: inactive: 30.7%.
As to `O=[As](O)(c1ccccc1Br)c1ccccc1Br`, the inhibition is inactive: -9.31%.
Next, `CC1(CBr)Cn2c(nc3ccccc3c2=O)S1` (centres undefined): inactive: -17.4%; `O=[N+]([O-])c1cc([N+](=O)[O-])c(-c2cnn(-c3ccccc3)c2)c([N+](=O)[O-])c1`: active: 57.4%; `COc1ccccc1CNC(=O)COC(=O)C(O)(c1ccccc1)c1ccccc1`: inactive: -8.22%.
For `Cc1cccc(OCC(=O)OC2CN3CCC2CC3)c1` (centres undefined), the inhibition is inactive: -50.7%.
Regarding `O=[As](O)(c1cccc(O)c1)c1cccc(O)c1`, the inhibition is inactive: -6.91%.
